Measurements from article PMC10809502, “Application of a new MDCKII-MDR1 cell model to measure the extent of drug distribution in vitro at equilibrium for prediction of in vivo unbound brain-to-plasma drug distribution” (Fluids and Barriers of the CNS, 2024).

The chains behind the UniProt entries cited, without tags or fusion partners. Residues count along the entry.
UniProt P02769, 25-607: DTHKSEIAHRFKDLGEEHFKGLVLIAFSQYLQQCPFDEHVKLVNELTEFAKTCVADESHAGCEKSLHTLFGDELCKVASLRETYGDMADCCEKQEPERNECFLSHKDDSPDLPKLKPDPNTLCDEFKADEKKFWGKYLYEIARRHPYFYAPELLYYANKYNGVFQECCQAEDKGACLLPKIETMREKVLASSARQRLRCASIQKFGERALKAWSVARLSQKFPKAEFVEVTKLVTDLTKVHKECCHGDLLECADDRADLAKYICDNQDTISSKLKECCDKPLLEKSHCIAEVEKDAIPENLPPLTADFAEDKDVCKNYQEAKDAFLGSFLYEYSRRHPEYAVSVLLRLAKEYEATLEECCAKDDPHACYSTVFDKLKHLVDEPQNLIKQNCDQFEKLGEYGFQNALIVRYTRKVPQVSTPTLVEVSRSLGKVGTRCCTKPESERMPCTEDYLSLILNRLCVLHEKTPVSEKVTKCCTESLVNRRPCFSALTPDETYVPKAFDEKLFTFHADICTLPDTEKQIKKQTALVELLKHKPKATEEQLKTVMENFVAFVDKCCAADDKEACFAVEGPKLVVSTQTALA

Experiments:
[1] = cited from earlier work
[2] = tested on: P-gp (human MDR1); assay: Equilibrium distribution study (in vitro Kp,brain / Kp,uu,brain) across MDCKII-MDR1 cells, BSA apical, brain homogenate basolateral, Uni-L and Bi-L; conditions: dog, % printed
[3] = tested on: MDCKII-MDR1 cells; assay: as above; conditions: 29 h, 1 μM, brain homogenate/BSA ratio
[4] = tested on: P-gp (human MDR1); assay: in vitro; conditions: dog, MDCK-MDR1, pH 7.4
[5] = biological target: Bovine Serum Albumin (BSA) (Bos taurus, UniProt P02769); assay: Fraction unbound in 35 μM BSA, equilibrium dialysis

SMILES: Cc1nc2n(c(=O)c1CCN1CCC(c3noc4cc(F)ccc34)CC1)CCCC2 [Risperidone, risperidone]
- classification of brain penetration in vivo ([1]; Göttingen minipig Kp,uu,brain): restricted (restricted brain penetration with Kp,uu,brain < 0.3)
- Kp,uu,brain in vivo ([1]; Göttingen minipig): 0.19
- recovery at 29 h, 1 μM ([2]; pH 7.5, Recovery Bi-L, mass balance Eq. 7, Bi-L): 62%
- recovery at 29 h, 1 μM ([2]; pH 7.5, Recovery Uni-L, mass balance Eq. 6, Uni-L): 75%
- in vitro determined Kp,brain Bi-L ([3]; Bi-L (compound loaded both sides)): 0.79
- in vitro determined Kp,brain Uni-L ([3]; Uni-L (compound loaded apically in BSA)): 0.86
- Papp B→A at 60 min, 0.5 μM [4]: 37 ± 4 ×10⁻⁶ cm/s
- fraction unbound at 5 h, 1 μM ([5]; bovine, 35 μM BSA): 0.918 ± 0.016
- Predicted fu (%) BSA 35 μM (D = 20) ([5]; calculated with Eq. 2 from fu measured in 100% matrices (ref 20), dilution factor 20): 89.4%
